Experimental data: PMC10084252, “PAF‐induced inflammatory and immuno‐allergic ophthalmic diseases and their mitigation with PAF receptor antagonists: Cell and nuclear effects” (Biofactors (Oxford, England), 2022)

Chains of the proteins cited; added tags and fusions are not shown. Residues count along the entry.
UniProt G1TEI7, 1-342: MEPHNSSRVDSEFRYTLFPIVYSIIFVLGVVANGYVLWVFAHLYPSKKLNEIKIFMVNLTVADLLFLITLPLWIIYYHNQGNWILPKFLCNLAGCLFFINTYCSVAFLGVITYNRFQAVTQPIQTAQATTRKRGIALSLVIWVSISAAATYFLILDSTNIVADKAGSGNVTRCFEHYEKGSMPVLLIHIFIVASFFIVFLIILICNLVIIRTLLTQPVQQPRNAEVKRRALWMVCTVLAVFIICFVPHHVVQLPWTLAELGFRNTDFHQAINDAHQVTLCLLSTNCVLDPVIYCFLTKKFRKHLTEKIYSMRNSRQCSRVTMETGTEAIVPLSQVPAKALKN

Target: PAF receptor (Oryctolagus cuniculus, UniProt G1TEI7)
Experiment: [3H]‐PAF receptor binding to rabbit platelet membranes
Conditions: read-out: [3H]‐PAF receptor binding inhibition constant (Ki, nM; Mean ± SEM)
Excerpt: FIGURE 5 Pharmacological profile of PAR receptor binding to platelet membranes. Figure 5A depicts the concentration‐dependent inhibition by unlabeled PAF receptor antagonists of different affinities for [^3H]‐PAF binding to rabbit platelet membranes in vitro. Figure 5B illustrates the correlation between the pharmacological profile of PAF receptor antagonists competing for [^3H]‐PAF binding to rabbit and human platelet membranes.

Row | SMILES | Ki [nM]
1 | CCCCCCCCCCCCCCCCCCNC(=O)OC1CCN(C(=O)OC[C@H](COC(=O)N(Cc2cccc[n+]2CC)C(=O)c2ccccc2OC)OC)CC1 | 9.5
2 | Cc1nnc2n1-c1sc(C#CCn3c(=O)c4ccccc4c4ccccc43)cc1C(c1ccccc1Cl)=NC2 | 3.5
